Source: patent US20070104696A1, “Use of cell lines to produce active therapeutic proteins” (Multicell Technologies, Inc., priority 2003, published 2007)

System: Fa2N-4 Cells and Primary Human Hepatocytes
Test: Comparison of toxicity in Fa2N-4 cells and primary human hepatocytes

## Hyperforin
  Cellular Response (Same / Different) in Fa2N-4 cells versus primary human hepatocytes: Different
